Measured values taken from ChEMBL document CHEMBL1147724, “Synthesis and in vitro antileukemic activity of some new 1,3-(oxytetraethylenoxy)cyclotriphosphazene derivatives” (2006).
≈ marks a conversion by molar mass, not a printed value. Calls of active or inactive are those of the source. No cut-off for these calls is given here.

How the values were obtained:
Type in all cases: functional
BALB/3T3 = assay: Antiproliferative activity against BALB/3T3 cell line by MTT assay at 4 ug/ml; conditions: Mus musculus
MOLT-4 = assay: Antiproliferative activity against human MOLT4 cell line by MTT assay at 4 ug/ml
L1210 = assay: Antiproliferative activity against mouse L1210 cell line by MTT assay at 4 ug/ml
HL-60 = assay: Antiproliferative activity against human HL60 cell line by MTT assay at 4 ug/ml
P388 = assay: Antiproliferative activity against mouse P388 cell line by MTT assay at 4 ug/ml

ClP1(Cl)=NP2(Cl)=NP(Cl)(=N1)OCCOCCOCCOCCO2 (stereo not given)
ID50 (BALB/3T3): inactive | ID50 (MOLT-4): inactive | ID50 (L1210): inactive | ID50 (HL-60): 36.9 µg/mL (≈ 78.6 µM) | ID50 (P388): inactive
